A short description of this data set: Determination of water solubility by external standard method.
Setting [1] is: 0.1 mol/L hydrochloric acid aqueous solution.

The values that follow come from patent US9409857B2, “Agomelatine sulfuric acid complex, and preparation method and application thereof” (SHANGHAI RIGHTHAND PHARMTECH. CO., LTD., priority 2012, dated 2016).

Take Agomelatine sulfuric acid complex: the “Agomelatine content (solubility)” value under setting [1] is 0.40 mg/mL.

Take “Agomelatine benzenesulfonic acid complex”: the “Agomelatine content (solubility)” value under setting [1] came to 0.38 mg/mL, the “Agomelatine content (solubility)” value (pH = 7.0 buffer solution) was determined as 0.29 mg/mL and the “Agomelatine content (solubility)” value (pury water) came to 0.30 mg/mL.
